Experimental data reported in patent US7893023B2, “Prodrugs activated by plasmin and their use in cancer chemotherapy” (priority 2000, dated 2011).

System: B16-B16 melanoma cells
Assay: Uptake by B16-B16 cells
Assay type: cell-based, murine
Settings: B16-B16 cells incubated with the compound
Protocol: This experiment was conducted to evaluate whether the prodrugs were able to enter cultured cells in their non-hydrolyzed forms. In addition, it was desired to estimate the capacity of the prodrugs to induce detectable levels of products of their enzymatic hydrolysis (DNR and its amino acid derivatives) inside B16-B16 cells. N-Leu-Leu-DNR was chosen as a reference drug since it is the product that is directly liberated by plasmin from Compound II, DNR.
Confluent B16-B16 melanoma cell cultures were incubated in the presence of 17.24 μM dilutions in the serum-containing DMEM-F12 medium of either Compound I, DNR, Compound II, DNR, or N-Leu-Leu-DNR. At determined time points (1, 3, 5 and 24 hours), the cells were washed, harvested and lysed by ultrasonication. The concentration of the drugs and metabolites in the cell lysates were determined after extraction and HPLC analysis (See General Methods, Section J.). The amounts of anthracycline derivatives found per mg of protein were then compared.

Question: With “D-Ala-Leu-Lys-Leu-Leu-DNR [Compound II, DNR]” as the substance, how does the “N-Leu-Leu-DNR found inside cells” value read?
Answer: No traces
